# PubChem BioAssay AID602313 (National Center for Advancing Translational Sciences (NCATS), 2012)
# This is a selection; strong and weak results do not stand in their true shares. Active and inactive are the calls of the source. Calls follow the shape of the dose curve; as a rule, active = well fitted inhibition curve with a large enough effect; inconclusive = small, poorly fitted or top-dose-only effect; inactive = flat fitted curve, though single readings scatter.
# Experiment: qHTS for Inhibitors of Vif-A3F Interactions: qHTS; also: % of control where 0% means no effect; nearly all actives have a fitted effect of over 65% in size
# Settings: HeLa A3F-eYFP + Vif (tagged APOBEC3F with the HIV-1 protein that degrades it), YFP fluorescence increase; at 46.1 µM (top of the series)
# Description: The recent discovery and characterization of host restriction factors, which provide a potent defense to invading retroviruses, has provided new targets for antiviral drug development. APOBEC3G (A3G) and APOBEC3F (A3F) are potent cytidine deaminases that block HIV-1 replication; HIV-1 expresses the Vif protein, which counteracts A3G and A3F by binding to them and inducing their proteasomal degradation. The Vif-A3G and Vif-A3F interactions provide two potential targets for development of small molecules which can interfere with the ability of Vif to degrade A3G or A3F. […] To identify inhibitors that can interfere with Vif mediated degradation of A3G and A3F, we have developed Hela cell lines that stably express A3G or A3F tagged with eYFP at the C-terminal end (A3G-eYFP or A3F-eYFP, respectively) and Vif. In the absence of an inhibitor, Vif induces degradation of A3G-eYFP and A3F-eYFP, and the cells are not fluorescent. In the presence of an inhibitor, it is expected that Vif will be unable to degrade A3G-eYFP and/or A3F-eYFP, resulting in an increase in yellow fluorescence. In this assays Vif A3F was screened against the Molecular Library Small Molecule Repository (MLSMR). NIH Chemical Genomics Center [NCGC] NIH Molecular Libraries Probe Centers Network [MLPCN] MLPCN Grant: MH093245 Assay Submitter (PI): Vinay Pathak, National Cancer Institute
# 5 uL of 700 cells/well of A3F-YFP cells are dispensed into black, clear bottom plates. The plates are incubated overnight at 37 deg C. 23 nL of compounds are added by pintool. The plates are incubated overnight at 37 deg C and then read on the TTP Acumen (Ex 488/ Em 500-530).
row,SMILES,"activity, negative = active"
1,Nc1ccccc1[As](=O)(O)c1ccccc1,inactive: 0.282%
2,O=C(O)COc1ccc([As](=O)(O)O)cc1[N+](=O)[O-],inactive: -0.479%
3,CCOP1(=S)c2c(C)nn(CCC#N)c2N=C(c2ccccc2F)N1C (stereo unspecified),inactive: -12.4%
4,O=P(Nc1nccs1)(c1ccccc1)c1nc2ccccc2s1 (stereo unspecified),inactive: -22.2%
5,O=P(Nc1nccs1)(Oc1ccccc1)Oc1ccccc1,inactive: 2.1%
6,CN(C)C(=O)c1cc([N+](=O)[O-])cc2c1-c1c(cc([N+](=O)[O-])cc1[N+](=O)[O-])C2=O,inactive: 8.18%
7,O=[N+]([O-])c1ccc2c(c1)nnn2O,inactive: 0.0364%
8,CN(C(=O)Cc1ccc(Cl)c(Cl)c1)[C@H]1CC[C@@]2(CCCO2)C[C@@H]1N1CCCC1,inactive: -0.398%
9,N#CCCN(C(=O)COC(=O)C(O)(c1ccccc1)c1ccccc1)c1ccc(F)cc1,inactive: 6.62%
10,CCOP1(=S)c2c(C)nn(CCC#N)c2N=C(c2ccc(F)cc2)N1C (stereo unspecified),inactive: -0.147%
11,CN(C(=O)Cc1ccccc1)[C@@H]1CC[C@]2(CCCO2)C[C@H]1N1CCCC1,inactive: 8.61%
12,NC(=O)Nc1ccc([As](=O)(O)O)cc1,inactive: 6.6%
13,O=C(/C=C/c1ccccc1)OC1CN2CCC1CC2 (stereo unspecified),inactive: 0%
14,CCCC1OP(=O)(Nc2ccccc2)OCC1CC (stereo unspecified),inactive: -3.76%
15,CN(C)C1(CNC(=O)c2ccc(S(C)(=O)=O)cc2)CCCCC1,inactive: 1.52%
16,Cc1nn(-c2ccccc2)c2c1P(=O)(N1CCOCC1)N(C)C(c1ccccc1)=N2 (stereo unspecified),inactive: -0.425%
17,CC1CCC(C(C)C)C(OP(=O)(Nc2ccccn2)c2ccccc2)C1 (stereo unspecified),inactive: -2.12%
18,Cc1ccc(C(=O)OC2CN3CCC2CC3)cc1 (stereo unspecified),inactive: -2.47%
19,O=P1(Nc2ccc(Br)cn2)COc2ccccc2OC1,inactive: 3.92%
20,NS(=O)(=O)c1cccc(NC(=O)COC(=O)C(O)(c2ccccc2)c2ccccc2)c1,inactive: 3.3%
21,O=[As](O)(c1cccs1)c1cccs1,inactive: 2.63%
22,Cc1ccc(OCC(=O)OC2CN3CCC2CC3)cc1 (stereo unspecified),inactive: -1.31%
23,Nc1cccc([As](=O)(O)c2ccccc2)c1,inactive: 0.0331%
24,O=P1(Nc2ncccn2)COc2ccccc2OC1,inactive: 0.482%
25,O=P1(N(CCCl)CCCl)NCCC(C(F)(F)F)O1 (stereo unspecified),inactive: -0.54%
26,Clc1n[nH]nc1-c1nn[nH][15n]1,inactive: -12.3%

row,SMILES,"activity, negative = active"
1,CC(C)(C)C(=O)NC(Sc1ncccn1)C(Cl)(Cl)Cl (stereo unspecified),inactive: -7.98%
2,CN(CCCl)Cc1cc(Cl)c(NC2=NCCN2)c(Cl)c1,inactive: -15.9%
3,CCOP(=O)(Nc1ccc(C)cn1)OCC,inactive: -7.41%
4,O=P1(Nc2ccccn2)COc2ccccc2OC1,inactive: 9.01%
5,CCC1=CC2Cc3nc4ccc(Cl)cc4c(N)c3C(C1)C2 (stereo unspecified),inactive: -1.45%
6,CCOP(=O)(NC(=NC(C)c1ccccc1)NC(C)c1ccccc1)OCC (stereo unspecified),inactive: -10.1%
7,CC1(CBr)Cn2c(nc3ccccc3c2=O)S1 (stereo unspecified),inactive: 0.413%
8,CC(C)/C=N\N=C(\N)N[N+](=O)[O-],inactive: -2.24%
9,CN(C(=O)Cc1ccc(Cl)c(Cl)c1)[C@@H]1CCCC[C@H]1N1CCCC1,inactive: -2.6%
10,COc1ccccc1CNC(=O)COC(=O)C(O)(c1ccccc1)c1ccccc1,inactive: -6.56%
11,c1nnnn1CCn1cnnn1,inactive: 0.226%
12,CC(C)C(=O)NC(Sc1ccccc1)C(Cl)(Cl)Cl (stereo unspecified),inactive: 3.84%
13,O=P(Nc1nccs1)(c1ccccc1)c1ccccc1,inactive: 1.58%
14,O=P(Nc1nc2ccccc2s1)(c1ccccc1)c1ccccc1,inactive: 0.516%
15,C[C@H]1OP(=O)(Oc2ccccc2)[C@H](O)[C@H](O)[C@H]1N=[N+]=[N-] (stereo partly specified),inactive: 5.62%
16,COc1ccc(N)c([N+](=O)[O-])c1[N+](=O)[O-],inactive: -0.29%
17,O=P(Nc1ccccn1)(c1ccc(Br)cc1)c1ccc(Br)cc1,inactive: -5.29%
18,CN(C)C1(CNC(=O)c2ccc(Cl)c(S(N)(=O)=O)c2)CCCCC1,inactive: 5.04%
19,Nc1ccc([As](=O)(O)c2ccc([N+](=O)[O-])cc2)cc1,inactive: -7.81%
20,C(Cc1nn[nH]n1)Cc1nn[nH]n1,inactive: 0.773%
21,O=C(OC1CN2CCC1CC2)c1cccc(Cl)c1 (stereo unspecified),inactive: 0.612%
22,O=[N+]([O-])c1ccc(O)c(/C=N/Nc2ccc([N+](=O)[O-])cc2[N+](=O)[O-])c1,inactive: -3.38%
23,O=[N+]([O-])c1ncn(CCn2cnc([N+](=O)[O-])n2)n1,inactive: 1.75%
24,CC(=O)NC(SC(=S)N(C)C)C(Cl)(Cl)Cl (stereo unspecified),inactive: -0.172%
25,O=[As](O)(c1ccccc1)c1ccc(O)cc1,inactive: 8.76%
